Data on two compounds can be found in ChEMBL document CHEMBL5620418.

Protein sequences, listed by entry. Tags and fused reporters are not part of them.
UniProt P35372, whole entry: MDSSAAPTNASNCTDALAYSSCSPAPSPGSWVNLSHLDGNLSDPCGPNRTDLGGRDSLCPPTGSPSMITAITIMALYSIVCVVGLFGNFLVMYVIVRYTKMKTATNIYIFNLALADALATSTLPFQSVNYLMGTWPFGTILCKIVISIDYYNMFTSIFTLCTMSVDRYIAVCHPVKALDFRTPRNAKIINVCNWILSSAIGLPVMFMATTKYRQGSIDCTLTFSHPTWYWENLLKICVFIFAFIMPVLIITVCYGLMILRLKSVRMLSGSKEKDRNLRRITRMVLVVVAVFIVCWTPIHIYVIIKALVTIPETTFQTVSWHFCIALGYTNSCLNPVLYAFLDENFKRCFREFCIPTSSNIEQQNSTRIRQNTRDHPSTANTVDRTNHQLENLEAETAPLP
UniProt P41143, whole entry: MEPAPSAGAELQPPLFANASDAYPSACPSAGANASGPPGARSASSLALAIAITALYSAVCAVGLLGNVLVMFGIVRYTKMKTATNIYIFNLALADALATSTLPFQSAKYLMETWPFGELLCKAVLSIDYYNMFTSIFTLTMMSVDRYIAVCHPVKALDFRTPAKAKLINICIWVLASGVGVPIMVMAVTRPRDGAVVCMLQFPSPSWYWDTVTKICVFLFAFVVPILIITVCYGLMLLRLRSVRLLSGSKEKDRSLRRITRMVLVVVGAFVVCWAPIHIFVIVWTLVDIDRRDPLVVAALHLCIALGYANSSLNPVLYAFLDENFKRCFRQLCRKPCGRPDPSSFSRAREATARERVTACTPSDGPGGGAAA
UniProt P41145, whole entry: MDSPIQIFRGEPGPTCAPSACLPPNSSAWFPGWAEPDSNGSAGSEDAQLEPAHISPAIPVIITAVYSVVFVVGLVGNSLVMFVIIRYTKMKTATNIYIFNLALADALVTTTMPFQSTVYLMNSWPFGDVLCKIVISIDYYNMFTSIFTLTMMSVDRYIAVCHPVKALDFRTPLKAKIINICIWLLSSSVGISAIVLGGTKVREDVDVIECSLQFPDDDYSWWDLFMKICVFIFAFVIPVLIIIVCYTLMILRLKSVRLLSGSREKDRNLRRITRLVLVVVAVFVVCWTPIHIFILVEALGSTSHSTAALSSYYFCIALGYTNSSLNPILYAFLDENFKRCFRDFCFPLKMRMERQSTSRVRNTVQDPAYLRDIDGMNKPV

Each structure is given as a SMILES string.

By Ki is commonly meant the dissociation constant of the complex between target and ligand, obtained from inhibition or displacement. As usually defined, the EC50 is the concentration needed to bring the measured effect to its halfway point.

Assay [1] deals with T1, Mu-type opioid receptor (Homo sapiens, UniProt P35372). Nature of the assay: Displacement of [3H]DAMGO from human cloned mu-opioid receptor expressed in CHO cell membrane by liquid scintillation counting. (In general: In a radioligand displacement assay an active substance lowers the binding of a labelled ligand.)
Assay [2] has as its target T2, Delta-type opioid receptor (Homo sapiens, UniProt P41143). Nature of the assay: Displacement of [3H]DPDPE from human cloned delta-opioid receptor expressed in CHO cell membrane by liquid scintillation counting.
In assay [3] the target is T3, Kappa-type opioid receptor (Homo sapiens, UniProt P41145). The assay can be described thus: Displacement of [3H]U69593 from human cloned kappa-opioid receptor expressed in CHO cell membrane by liquid scintillation counting.
Assay [4] has as its target T1, Mu-type opioid receptor. The conditions noted are these: cho.
In assay [5] the target is T1, Mu-type opioid receptor. The assay can be described thus: Agonist activity at human mu opioid receptor expressed in CHO cell membrane assessed as stimulation of [35S]GTPgammaS binding incubated for 1 hr by liquid scintillation counting analysis. For orientation: GTPγS is a poorly hydrolysed GTP analogue; its binding reports G protein activation.
The target of assay [6] is T2, Delta-type opioid receptor. Nature of the assay: Agonist activity at human delta opioid receptor expressed in CHO cell membrane assessed as stimulation of [35S]GTPgammaS binding incubated for 1 hr by liquid scintillation counting analysis.
Assay [7] addresses T3, Kappa-type opioid receptor. The assay can be described thus: Agonist activity at human kappa opioid receptor expressed in CHO cell membrane assessed as stimulation of [35S]GTPgammaS binding incubated for 1 hr by liquid scintillation counting analysis.

For `COc1ccc2c3c1O[C@H]1[C@@]4(OC)C=C[C@@]5(C[C@@H]4C(=O)c4ccc(NC(=O)c6ccccc6)cc4)[C@@H](C2)N(CC2CC2)CC[C@]315`, the Ki was 32.6 nM at Mu-type opioid receptor [1], 678 nM in assay [2] and above 10000 nM in assay [3]. The same compound yielded an EC50 on Mu-type opioid receptor [4] of 9 nM.

`COc1ccc2c3c1O[C@H]1[C@@]4(OC)C=C[C@@]5(C[C@@H]4C(=O)c4ccc(N)cc4)[C@@H](C2)N(CC2CC2)CC[C@]315`: the Ki was 40.4 nM on Mu-type opioid receptor [1], above 5000 nM in assay [2] and 14.6 nM in assay [3]. For the same compound, the EC50 at Mu-type opioid receptor [5] was found to be 29.7 nM; in assay [6], 1570 nM; in assay [7] it was 28.7 nM.
